Test results as given in US6352716B1, “Steroidal liposomes” (The Liposome Company Inc., priority 1984, dated 2002).

Type: physicochemical
Settings: pH 7.3
Protocol: (§1) The 2-amino-2-methyl-1,3-propanediol salt of cholesterol hemisuccinate (50 mg) was added to a 1 ml solution of arsenazo III (4.5 mM, final concentration) in 0.01 M 2-amino-2-methyl-1,3-propanediol-HCl (pH 7.3), 0.07 M KCl, 0.07 M NaCl. The suspension of CHS-MLVs was formed by mixing vortically with glass beads. The CHS-MLVs were pelleted by centrifugation at 10,000×g for 15 minutes, and the resulting pellet was washed three times as described in Section 6.1.1.
as §1, with “2-aminoethanol” for “2-amino-2-methyl-1,3-propanediol”, “2-aminoethanol-HCl” for “2-amino-2-methyl-1,3-propanediol-HCl”, “vertically” for “vortically”
The suspension of CHS-MLVs was formed by mixing vertically with glass beads. The CHS-MLVs were pelleted by centrifugation at 10,000×g for 15 minutes, and the resulting pellet was washed three times as described in Section 6.1.1.
The triethanolamine salt of cholesterol hemisuccinate (50 mg) was added to a 1 ml solution of arsenazo III (4.5 mM, final concentration) in 0.01 M triethanolamine-HCL (pH 7.3), 0.07 M KCl, 0.07 M NaCl. The suspension of CHS-MLVs was formed by mixing vortically with glass beads. […]

Q: Which “entrapment of arsenazo III (colour of washed pellet)” value does the source give for “bis-tris-propane salt of cholesterol hemisuccinate” here?
A: red in color indicating entrapment of the arsenazo III
